## Binding of CDR-mutated scFvs to a peptide of the spike HR2 region

Reference: Engelhart et al. 2022, doi:10.1038/s41597-022-01779-4. File: FLAb, binding data.

Binding partner: SARS-CoV-2 spike HR2 peptide, sequence PDVDLGDISGINAS.

Ab-14 is the parent antibody, in scFv form: VH, then the linker GGGGSGGGGSGGGGS, then VL. The light chain is unchanged in all variants.
VH: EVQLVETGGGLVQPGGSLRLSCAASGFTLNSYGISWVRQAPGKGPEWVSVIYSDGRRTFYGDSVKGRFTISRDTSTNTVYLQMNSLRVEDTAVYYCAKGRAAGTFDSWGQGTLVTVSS
VL: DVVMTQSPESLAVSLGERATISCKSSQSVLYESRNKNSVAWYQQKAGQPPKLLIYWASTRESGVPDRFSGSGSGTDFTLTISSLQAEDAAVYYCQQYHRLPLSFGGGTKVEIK

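The library (AAYL49) carries one to three amino acid substitutions per variant, with no insertions or deletions. In AlphaSeq, yeast of one mating type display the scFv and yeast of the other type display the target. Mating (16 h, 30 °C) was followed by selection of diploids and sequencing of their barcodes. A regression on co-assayed BCL2-family reference pairs converts the normalised counts of each replicate to an apparent Kd. The assay was run in three technical replicates.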

The parent's heavy chain CDRs are GFTLNSYGIS, VIYSDGRRTFYGDSVK, GRAAGTFDS; each variant's own CDRs replace them letter for letter.
The read-out is the apparent dissociation constant on a log10 scale (nM): the lower, the stronger.
An entry "ND" has no value in the source: the pair was not observed among the diploids in that replicate. This suggests poor binding but is not conclusive.
For reference, the parent read 0.65 as the reference entry and 4.11 (one replicate of three) as a member of this library.
As a blank, each scFv also met three strains without target: over library AAYL49, 15% of these pairings were detected, typically at 4.06 and seldom below 2.83. For each scFv, signals with the empty controls are counted beside the result, with their mean in brackets.

log10 Kd (nM) by replicate	signal with controls	CDR-H1	CDR-H2	CDR-H3
ND / 4.82 / ND	1/9 (3.96)	GFALNSYGIP	VIYSDGRRTFYGDSVK	GRAAGTFDN
ND / 3.39 / ND	0/9	GATLNSYGIS	VIYSDGRRTFYMDPVK	GRAAGTFDS
3.86 / ND / ND	2/9 (3.80)	GFTLNLYGIS	VIFSVGRRTFYGDSVK	GRAAGTFDS
ND / ND / ND	0/9	FFTLESYGIS	VIYSDGRRTFYGISVK	GRAAGTFDS
ND / ND / ND	1/9 (3.20)	GFTLFSYGIS	VIYSDGRRTFYGDSVK	IRAAPTFDS
ND / ND / ND	1/9 (3.37)	GFQLNSRGIS	VIYSDGPRTFYGDSVK	GRAAGTFDS
ND / ND / ND	2/9 (3.65)	GFHLNSYGIS	VDYPDGRRTFYGDSVK	GRAAGTFDS
ND / ND / ND	0/9	GFTLNSYGIS	RIYSDGRRTFYGDSVK	GKAAYTFDS
4.54 / ND / 2.57	0/9	GFTLQSYGIS	VIYSDGPRTFQGDSVK	GRAAGTFDS
ND / ND / ND	1/9 (3.19)	GITLNSYGIS	VIYSDGRRTFYGDSVT	GRAAGTLDS
ND / ND / ND	0/9	GFTLNSYGTS	VIYIDGRRTFYGDWVK	GRAAGTFDS
ND / ND / ND	1/9 (3.01)	GFTGNSSGIS	VIYSKGRRTFYGDSVK	GRAAGTFDS
ND / ND / ND	1/9 (4.00)	GFTANSYGIS	VIYSDGRRTFYGDSVK	GRAFGTIDS
0.97 / 0.91 / 1.00	3/9 (4.51)	GFTLNSYGIS	VIYADGRRTFYGDSVT	GRAANTFDS
4.70 / ND / ND	0/9	MFTLNSYGNS	VIYSDGRRVFYGDSVK	GRAAGTFDS
ND / ND / ND	0/9	YFILNSYGIS	VIYSDIRRTFYGDSVK	GRAAGTFDS
ND / 3.20 / 5.25	4/9 (4.20)	GFTLVSDGIS	VIYSMGRRTFYGDSVK	GRAAGTFDS
ND / ND / ND	1/9 (3.25)	GFTLNSYGIS	SIYSDGRRTYYGDSVK	GRAAGTFDS
ND / ND / ND	0/9	KFTLNSYGIS	MIYSYGRRTFYGDSVK	GRAAGTFDS
4.46 / 3.78 / 3.99	2/9 (3.58)	GFTLNSYGIS	VIYSDGRCTFYGDSVK	IRANGTFDS
ND / ND / ND	0/9	GFNLNSYGIS	VIKSDGRRKFYGDSVK	GRAAGTFDS
6.55 / 4.39 / ND	4/9 (4.48)	GPTLNSYGIS	VIYSDGFQTFYGDSVK	GRAAGTFDS
3.70 / ND / ND	5/9 (3.96)	GFTLNSYGFV	VIYSDGRRTFYGDSVK	GRAAGTFDS
ND / ND / ND	0/9	GFTLNSYGIS	VIYSDKRQTFYGDSVK	GRAAGKFDS
ND / ND / ND	0/9	GFTLNSYGIS	VGYSDGRRWFYGDSVK	GRAAGTFDS
4.29 / ND / ND	2/9 (4.70)	GFNLNSFGES	VIYSDGRRTFYGDSVK	GRAAGTFDS
ND / ND / 4.79	2/9 (4.16)	GFTLNSYGIS	VIYSDIRRTFYGDSVK	GRAKGNFDS
ND / ND / ND	4/9 (4.02)	GFTLNSYGIS	VIYSDGRQTLYGDSVK	GRAAGTFPS
ND / ND / ND	3/9 (4.83)	GFTLNSYGIS	VIKSDGRRGFYGDSVK	CRAAGTFDS
ND / ND / ND	2/9 (4.12)	GFTLNSYGIS	VIHSDGRRTFYGDSVK	GRAAFTFDS
ND / ND / ND	0/9	GFTLKSYGIS	VIYSDGRRTFYGDSVK	LRAAGTFVS
5.40 / ND / ND	2/9 (3.97)	GFTLNSYGIS	IIYSDGRRQFYGDSVK	GRAASTFDS

The 2 strongest on average among those seen in every replicate, once more:

| CDR-H1 | CDR-H2 | CDR-H3 | log10 Kd (nM) by replicate | signal with controls |
|---|---|---|---|---|
| GFTLNSYGIS | VIYADGRRTFYGDSVT | GRAANTFDS | 0.97 / 0.91 / 1.00 | 3/9 (4.51) |
| GFTLNSYGIS | VIYSDGRCTFYGDSVK | IRANGTFDS | 4.46 / 3.78 / 3.99 | 2/9 (3.58) |